Measured values from patent US9120781B2, “Selective glycosidase inhibitors and uses thereof” (Simon Fraser University, priority 2010, dated 2015).

Amino acid sequences for entries named in this document (tags omitted). A change or cut given only in a name is not applied to a line headed by its entry.
UniProt O60502: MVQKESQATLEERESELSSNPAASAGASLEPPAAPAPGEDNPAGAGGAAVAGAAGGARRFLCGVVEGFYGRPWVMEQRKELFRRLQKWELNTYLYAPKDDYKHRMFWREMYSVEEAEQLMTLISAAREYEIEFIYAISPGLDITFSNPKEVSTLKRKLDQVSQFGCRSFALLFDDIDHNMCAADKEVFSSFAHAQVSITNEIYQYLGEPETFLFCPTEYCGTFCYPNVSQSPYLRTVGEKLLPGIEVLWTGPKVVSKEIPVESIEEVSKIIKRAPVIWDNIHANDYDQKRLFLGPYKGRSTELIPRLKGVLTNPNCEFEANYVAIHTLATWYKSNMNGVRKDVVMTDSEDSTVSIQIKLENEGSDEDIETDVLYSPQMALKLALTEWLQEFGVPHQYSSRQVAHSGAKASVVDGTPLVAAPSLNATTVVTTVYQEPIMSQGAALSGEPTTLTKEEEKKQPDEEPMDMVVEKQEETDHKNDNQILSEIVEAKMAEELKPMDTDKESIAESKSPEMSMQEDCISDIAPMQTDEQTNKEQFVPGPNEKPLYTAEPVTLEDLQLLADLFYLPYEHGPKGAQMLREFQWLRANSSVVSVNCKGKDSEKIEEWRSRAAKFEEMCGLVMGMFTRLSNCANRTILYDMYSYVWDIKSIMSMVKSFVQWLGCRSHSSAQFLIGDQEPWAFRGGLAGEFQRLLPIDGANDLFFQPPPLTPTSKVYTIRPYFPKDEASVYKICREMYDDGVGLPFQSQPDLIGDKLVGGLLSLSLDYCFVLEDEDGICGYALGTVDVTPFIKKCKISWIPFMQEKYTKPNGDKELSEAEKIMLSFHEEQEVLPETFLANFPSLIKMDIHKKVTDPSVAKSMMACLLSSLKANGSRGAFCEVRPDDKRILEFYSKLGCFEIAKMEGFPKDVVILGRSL

Biological target: human O-GlcNAcase (Homo sapiens (Human), UniProt O60502)
Assay: Assay for determination of KI values for inhibition of O-GlcNAcase activity (fluorescence-based hOGA)
Assay type: biochemical
Conditions: purified human O-GlcNAcase, 4-Methylumbelliferyl N-acetyl-β-D-glucosaminide substrate, pH 7.0, Cheng-Prusoff
Procedure: Assay for Determination of KI Values for Inhibition of O-GlcNAcase Activity
Experimental Procedure for Kinetic Analyses:
Enzymatic reactions are carried out in a reaction containing 50 mM NaH2PO4, 100 mM NaCl and 0.1% BSA (pH 7.0) using 2 mM 4-Methylumbelliferyl N-acetyl-β-D-glucosaminide dihydrate (Sigma M2133) dissolved in ddH2O, as a substrate. The amount of purified human O-GlcNAcase enzyme used in the reaction is 0.7 nM. Test compound of varying concentrations is added to the enzyme prior to initiation of the reaction. The reaction is performed at room temperature in a 96-well plate and is initiated with the addition of substrate. The production of fluorescent product is measured every 60 sec for 45 min with a Tecan Infinite M200 plate-reader with excitation at 355 nm and emission detected at […], with 4-Methylumbelliferone (Sigma M1381) used to produce a standard curve. The slope of product production is determined for each concentration of compound tested and plotted, using standard curve fitting algorithms for sigmoidal dose response curves. The values for a four parameter logistic curve fit of the data are determined.
KI values are determined using the Cheng-Prusoff equation; the Km of O-GlcNacase for substrate is 0.2 mM.

Compound: CC1=N[C@@H]2[C@@H](O)[C@H](O)[C@@H](CO)C[C@@H]2O1 (racemic) [Example 13, rac-(3aR,4R,5R,6R,7aS)-6-(hydroxymethyl)-2-methyl-3a,4,5,6,7,7a-hexahydrobenzo[d]oxazole-4,5-diol]
- Ki: 7.4 nM
